From US4520101A (priority 1983, dated 1985)

Columns and labels:
[1] = system: Cephalosporium acremonium; assay: 30 liter stirred tank fermentation (Example 4); details: 300 ppm added at 96 h
[2] = system: Cephalosporium acremonium; assay: Shake flask fermentation, inhibitors added at 0, 48 and 96 hours after inoculation (Example 2)
[3] = system: Cephalosporium acremonium; assay: Shake flask fermentation, inhibitors added to medium prior to sterilization (Example 3); details: Day 6
[4] = added at 0 hour, final conc. 100 ppm, Day 6
[5] = added at 0 hour, final conc. 100 ppm, Day 7
[6] = added at 0 hour, final conc. 200 ppm, Day 6
[7] = added at 0 hour, final conc. 200 ppm, Day 7
[8] = added at 0 hour, final conc. 400 ppm, Day 6
[9] = added at 0 hour, final conc. 400 ppm, Day 7
[10] = added at 0 hour, final conc. 800 ppm, Day 6
[11] = added at 0 hour, final conc. 800 ppm, Day 7
[12] = added at 48 hour, final conc. 100 ppm, Day 6
[13] = added at 48 hour, final conc. 100 ppm, Day 7
[14] = added at 48 hour, final conc. 200 ppm, Day 6
[15] = added at 48 hour, final conc. 200 ppm, Day 7
[16] = added at 48 hour, final conc. 400 ppm, Day 6
[17] = added at 48 hour, final conc. 400 ppm, Day 7
[18] = added at 48 hour, final conc. 800 ppm, Day 6
[19] = added at 48 hour, final conc. 800 ppm, Day 7
[20] = added at 96 hour, final conc. 100 ppm, Day 6
[21] = added at 96 hour, final conc. 100 ppm, Day 7
[22] = added at 96 hour, final conc. 200 ppm, Day 6
[23] = added at 96 hour, final conc. 200 ppm, Day 7
[24] = added at 96 hour, final conc. 400 ppm, Day 6
[25] = added at 96 hour, final conc. 400 ppm, Day 7
[26] = added at 96 hour, final conc. 800 ppm, Day 6
[27] = added at 96 hour, final conc. 800 ppm, Day 7

CCCCOP(OCCCC)OCCCC
desacetylcephalosporin C of the total ceph nucleus (head is drawing 8) ([1]; time 74 hours (before addition)): 4.2%
desacetylcephalosporin C of the total ceph nucleus (head is drawing 8) ([1]; time 85 hours (before addition)): 3.7%
desacetylcephalosporin C of the total ceph nucleus (head is drawing 8) ([1]; time 98 hours): 4.3%
desacetylcephalosporin C of the total ceph nucleus (head is drawing 8) ([1]; time 109 hours): 4.0%
desacetylcephalosporin C of the total ceph nucleus (head is drawing 8) ([1]; time 122 hours): 4.6%
desacetylcephalosporin C of the total ceph nucleus (head is drawing 8) ([1]; time 133 hours): 5.8%
desacetylcephalosporin C of the total ceph nucleus (head is drawing 8) ([1]; time 146 hours): 6.9%
desacetylcephalosporin C of the total ceph nucleus (head is drawing 8) ([1]; time 157 hours): 7.9%
desacetylcephalosporin C of the total ceph nucleus (head is drawing 8) ([1]; time 170 hours, control run 15.0): 9.1%

phosphorous acid
Ceph C [2, 4]: 11,810 mcg/g
Des Ceph C [2, 4]: 730 µg/g
Des Ceph C share of total ceph nucleus (head is drawing 3) [2, 4]: 5.8
Ceph C [2, 5]: 10,300 mcg/g
Des Ceph C [2, 5]: 925 µg/g
Des Ceph C share of total ceph nucleus (head is drawing 4) [2, 5]: 8.2
Ceph C [2, 6]: 10,540 mcg/g
Des Ceph C [2, 6]: 460 µg/g
Des Ceph C share of total ceph nucleus (head is drawing 3) [2, 6]: 4.2
Ceph C [2, 7]: 11,585 mcg/g
Des Ceph C [2, 7]: 935 µg/g
Des Ceph C share of total ceph nucleus (head is drawing 4) [2, 7]: 7.4
Ceph C [2, 8]: 9,940 mcg/g
Des Ceph C [2, 8]: 350 µg/g
Des Ceph C share of total ceph nucleus (head is drawing 3) [2, 8]: 3.4
Ceph C [2, 9]: 10,240 mcg/g
Des Ceph C [2, 9]: 500 µg/g
Des Ceph C share of total ceph nucleus (head is drawing 4) [2, 9]: 4.6
Ceph C [2, 10]: 10,600 mcg/g
Des Ceph C [2, 10]: 390 µg/g
Des Ceph C share of total ceph nucleus (head is drawing 3) [2, 10]: 3.5
Ceph C [2, 11]: 10,335 mcg/g
Des Ceph C [2, 11]: 425 µg/g
Des Ceph C share of total ceph nucleus (head is drawing 4) [2, 11]: 3.9
Ceph C [2, 12]: 10,300 mcg/g
Des Ceph C [2, 12]: 710 µg/g
Des Ceph C share of total ceph nucleus (head is drawing 3) [2, 12]: 6.4
Ceph C [2, 13]: 9,370 mcg/g
Des Ceph C [2, 13]: 820 µg/g
Des Ceph C share of total ceph nucleus (head is drawing 4) [2, 13]: 8.0
Ceph C [2, 14]: 9,895 mcg/g
Des Ceph C [2, 14]: 535 µg/g
Des Ceph C share of total ceph nucleus (head is drawing 3) [2, 14]: 5.1
Ceph C [2, 15]: 9,950 mcg/g
Des Ceph C [2, 15]: 710 µg/g
Des Ceph C share of total ceph nucleus (head is drawing 4) [2, 15]: 6.6
Ceph C [2, 16]: 10,030 mcg/g
Des Ceph C [2, 16]: 405 µg/g
Des Ceph C share of total ceph nucleus (head is drawing 3) [2, 16]: 3.8
Ceph C [2, 17]: 9,305 mcg/g
Des Ceph C [2, 17]: 480 µg/g
Des Ceph C share of total ceph nucleus (head is drawing 4) [2, 17]: 4.9
Ceph C [2, 18]: 9,200 mcg/g
Des Ceph C [2, 18]: 355 µg/g
Des Ceph C share of total ceph nucleus (head is drawing 3) [2, 18]: 3.7
Ceph C [2, 19]: 9,180 mcg/g
Des Ceph C [2, 19]: 470 µg/g
Des Ceph C share of total ceph nucleus (head is drawing 4) [2, 19]: 4.8
Ceph C [2, 20]: 8,355 mcg/g
Des Ceph C [2, 20]: 755 µg/g
Des Ceph C share of total ceph nucleus (head is drawing 3) [2, 20]: 8.3
Ceph C [2, 21]: 10,240 mcg/g
Des Ceph C [2, 21]: 1,430 mcg/g
Des Ceph C share of total ceph nucleus (head is drawing 4) [2, 21]: 12.2
Ceph C [2, 22]: 7.670 µg/g
Des Ceph C [2, 22]: 670 µg/g
Des Ceph C share of total ceph nucleus (head is drawing 3) [2, 22]: 8.0
Ceph C [2, 23]: 9,605 mcg/g
Des Ceph C [2, 23]: 975 µg/g
Des Ceph C share of total ceph nucleus (head is drawing 4) [2, 23]: 9.2
Ceph C [2, 24]: 7,830 mcg/g
Des Ceph C [2, 24]: 640 µg/g
Des Ceph C share of total ceph nucleus (head is drawing 3) [2, 24]: 7.5
Ceph C [2, 25]: 8,645 mcg/g
Des Ceph C [2, 25]: 705 µg/g
Des Ceph C share of total ceph nucleus (head is drawing 4) [2, 25]: 7.5
Ceph C [2, 26]: 10,140 mcg/g
Des Ceph C [2, 26]: 780 µg/g
Des Ceph C share of total ceph nucleus (head is drawing 3) [2, 26]: 7.1
Ceph C [2, 27]: 8,225 mcg/g
Des Ceph C [2, 27]: 770 µg/g
Des Ceph C share of total ceph nucleus (head is drawing 4) [2, 27]: 8.5
Ceph C ([3]; final conc. 200 ppm): 9,740 mcg/g
Des Ceph C ([3]; final conc. 200 ppm): 600 µg/g
Des Ceph C share of total ceph nucleus (head is drawing 6) ([3]; final conc. 200 ppm): 5.8
Ceph C ([3]; final conc. 400 ppm): 8,050 mcg/g
Des Ceph C ([3]; final conc. 400 ppm): 340 µg/g
Des Ceph C share of total ceph nucleus (head is drawing 6) ([3]; final conc. 400 ppm): 4.0
Ceph C ([3]; final conc. 800 ppm): 7,111 mcg/g
Des Ceph C ([3]; final conc. 800 ppm): 285 µg/g
Des Ceph C share of total ceph nucleus (head is drawing 6) ([3]; final conc. 800 ppm): 3.8
